Laboratory results reported in patent US11466042B2, “Method for producing ferric citrate hydrate” (Tokuyama Corporation, priority 2017, dated 2022).

details: dissolving temperature 55° C., 30 minutes

With “ferric citrate hydrate [Ferric citrate as material]” the aconitic acid increases was “about 0.1%”.

same assay, conditions: dissolving temperature 55° C., 1 hour

“ferric citrate hydrate [Ferric citrate as material]” gave an aconitic acid increases of ~0.3%.

same assay, conditions: dissolving temperature 55° C., 2 hours

“ferric citrate hydrate [Ferric citrate as material]” showed an aconitic acid increases of ~0.5%.

same assay, conditions: dissolving temperature 80° C., 30 minutes

For “ferric citrate hydrate [Ferric citrate as material]”, the aconitic acid increases was “about 1.5%”.

same assay, conditions: dissolving temperature 80° C., 1 hour

For “ferric citrate hydrate [Ferric citrate as material]”, the aconitic acid increases was ~4.0%.

same assay, conditions: dissolving temperature 80° C., 2 hours

For “ferric citrate hydrate [Ferric citrate as material]”, the aconitic acid increases was ~8.5%.

details: BET method, nitrogen adsorption; dried solid; citrate hydrate

Going from “ferric citrate hydrate [Comparative example 1, reference compound]” to ferric citrate hydrate [Example 1], the Specific surface area rises from 36.6 m^2/g to 84.4 m^2/g.

First: ferric citrate hydrate [Example 2]
Second: ferric citrate hydrate [Example 3]
The Specific surface area of the first is lower: 71.2 m^2/g for the first, 125.2 m^2/g for the second.

Compared with ferric citrate hydrate [Example 4], ferric citrate hydrate [Example 5] is lower in Specific surface area: 108.9 m^2/g for the first, 82.2 m^2/g for the second.

First: ferric citrate hydrate [Example 6]
Second: ferric citrate hydrate [Example 7]
The Specific surface area of the first is higher: 50.6 m^2/g for the first, 47.5 m^2/g for the second.

Compared with ferric citrate hydrate [Example 8], ferric citrate hydrate [Example 9] is lower in Specific surface area: 39.2 m^2/g for the first, 22.9 m^2/g for the second.

First: ferric citrate hydrate [Example 10]
Second: ferric citrate hydrate [Example 11]
The Specific surface area of the first is lower: 17.2 m^2/g for the first, 88.8 m^2/g for the second.

Going from ferric citrate hydrate [Example 12] to ferric citrate hydrate [Example 13], the Specific surface area falls from 51.6 m^2/g to 45.6 m^2/g.

First: ferric citrate hydrate [Example 14]
Second: ferric citrate hydrate [Example 15]
The Specific surface area of the first is higher: 35.1 m^2/g for the first, 31.7 m^2/g for the second.

Going from ferric citrate hydrate [Example 16] to ferric citrate hydrate [Example 17], the Specific surface area rises from 27.1 m^2/g to 27.8 m^2/g.

Compared with ferric citrate hydrate [Example 18], ferric citrate hydrate [Example 19] is lower in Specific surface area: 135.4 m^2/g for the first, 54.4 m^2/g for the second.

Compared with ferric citrate hydrate [Example 20], ferric citrate hydrate [Example 21] is lower in Specific surface area: 122.4 m^2/g for the first, 50.9 m^2/g for the second.

Going from ferric citrate hydrate [Example 22] to ferric citrate hydrate [Example 23], the Specific surface area rises from 72.5 m^2/g to 91.4 m^2/g.

Going from ferric citrate hydrate [Example 24] to ferric citrate hydrate [Example 26], the Specific surface area falls from 89.5 m^2/g to 65.3 m^2/g.

Compared with ferric citrate hydrate [Example 27], ferric citrate hydrate [Example 28] is higher in Specific surface area: 75.7 m^2/g for the first, 91.0 m^2/g for the second.

Going from ferric citrate hydrate [Example 29] to ferric citrate hydrate [Example 30], the Specific surface area falls from 91.2 m^2/g to 60.3 m^2/g.

First: ferric citrate hydrate [Example 31]
Second: ferric citrate hydrate [Example 32]
The Specific surface area of the first is lower: 13.2 m^2/g for the first, 20.2 m^2/g for the second.

Going from ferric citrate hydrate [Example 33] to ferric citrate hydrate [Example 34], the Specific surface area rises from 86.3 m^2/g to 88.9 m^2/g.

First: ferric citrate hydrate [Example 35]
Second: ferric citrate hydrate [Example 36]
The Specific surface area of the first is lower: 72.1 m^2/g for the first, 128.9 m^2/g for the second.

First: ferric citrate hydrate [Example 37]
Second: ferric citrate hydrate [Example 38]
The Specific surface area of the first is higher: 140.5 m^2/g for the first, 19.4 m^2/g for the second.

Going from ferric citrate hydrate [Example 39] to ferric citrate hydrate [Example 40], the Specific surface area rises from 58.4 m^2/g to 68.3 m^2/g.

First: ferric citrate hydrate [Example 41]
Second: ferric citrate hydrate [Example 42]
The Specific surface area of the first is lower: 76.3 m^2/g for the first, 79.8 m^2/g for the second.

In the case of “ferric citrate hydrate [Ferric citrate as material]”, the Specific surface area is reported as 30.0 m^2/g.

For ferric citrate hydrate [Example 25], the Specific surface area was 84.6 m^2/g and 91.5 m^2/g.

same assay, conditions: BET method, nitrogen adsorption; dried solid; listed as ferric citrate as the material, citrate hydrate

“ferric citrate hydrate [Ferric citrate as material]” gave a Specific surface area of 30.0 m^2/g.

“And” between values parts separate entries of the source, which are not always exact repeats. Identical values can stand only once.
